1 molecule from patent US20210077478A1, “METHOD OF COUNTERING RESPIRATORY DEPRESSION VIA ACTIVATION OF NEURONAL HETEROMERIC NICOTINIC ACETYLCHOLINE RECEPTORS” (THE GOVERNORS OF THE UNIVERSITY OF ALBERTA, priority 2017, published 2021) can be followed below.

Assay [1] has as its system adult rats. Put plainly: Thermal nociception (paw withdrawal latency, plantar test) in adult rats. The format is in vivo, rat. The note with it: A85380 0.06 mg/kg 2 min prior to fentanyl 20 μg/kg over 400s iv.
The subject of assay [2] is adult rats. Put plainly: Formalin test (licking and lifting) in adult rats. The format is in vivo, rat. The note with it: A85380 0.06 mg/kg 2 min prior to fentanyl 20 μg/kg over 400s iv.

Turning to `c1cncc(OC[C@@H]2CCN2)c1` [A85380, 3-(2(s)-azetidinylmethoxy) pyridine], the “fentanyl-induced analgesia, thermal test” value with adult rats [1] is “further increased fentanyl-induced analgesia”. The “fentanyl-induced analgesia, formalin test” value in the assay with adult rats [2] is on record as “further increased fentanyl-induced analgesia”.
